ChEMBL document CHEMBL1138144, “1-(4-Methylphenyl)-2-pyrrolidin-1-yl-pentan-1-one (Pyrovalerone) analogues: a promising class of monoamine uptake inhibitors” (J Med Chem, 2006)
pIC50, pKi: −log10 of the molar value.

By UniProt entry, the sequences of proteins in these tests, tags left out. Where a name states a change or a piece, a line headed by the entry shows the natural chain unless it says otherwise.
UniProt Q01959, whole entry: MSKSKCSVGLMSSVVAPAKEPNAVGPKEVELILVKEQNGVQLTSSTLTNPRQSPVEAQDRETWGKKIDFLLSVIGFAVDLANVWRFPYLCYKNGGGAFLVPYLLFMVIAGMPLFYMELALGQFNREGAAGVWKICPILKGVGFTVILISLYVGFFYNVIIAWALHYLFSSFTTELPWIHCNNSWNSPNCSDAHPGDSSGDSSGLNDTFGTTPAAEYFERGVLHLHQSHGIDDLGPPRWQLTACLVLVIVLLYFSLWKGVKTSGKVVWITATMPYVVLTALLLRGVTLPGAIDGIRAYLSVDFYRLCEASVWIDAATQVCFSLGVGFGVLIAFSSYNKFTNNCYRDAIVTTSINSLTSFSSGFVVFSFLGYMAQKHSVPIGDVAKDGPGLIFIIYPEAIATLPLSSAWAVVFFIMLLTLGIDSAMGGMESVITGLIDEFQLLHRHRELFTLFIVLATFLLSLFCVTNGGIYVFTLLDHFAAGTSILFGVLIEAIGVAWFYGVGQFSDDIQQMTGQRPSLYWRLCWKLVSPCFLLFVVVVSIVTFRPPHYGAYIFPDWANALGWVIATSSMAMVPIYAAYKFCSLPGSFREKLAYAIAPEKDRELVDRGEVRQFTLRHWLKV
UniProt P08908, whole entry: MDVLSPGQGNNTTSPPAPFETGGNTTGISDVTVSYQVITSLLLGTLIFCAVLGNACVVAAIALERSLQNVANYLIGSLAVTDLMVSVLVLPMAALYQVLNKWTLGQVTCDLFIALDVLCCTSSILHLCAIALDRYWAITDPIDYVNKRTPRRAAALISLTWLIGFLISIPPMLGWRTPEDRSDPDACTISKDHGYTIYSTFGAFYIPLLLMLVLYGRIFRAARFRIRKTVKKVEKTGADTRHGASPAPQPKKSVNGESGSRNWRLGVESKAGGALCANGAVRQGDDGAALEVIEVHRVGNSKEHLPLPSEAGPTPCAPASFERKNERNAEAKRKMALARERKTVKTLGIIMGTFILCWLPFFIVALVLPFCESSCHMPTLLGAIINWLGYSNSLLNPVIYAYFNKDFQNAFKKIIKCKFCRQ
UniProt P14416, whole entry: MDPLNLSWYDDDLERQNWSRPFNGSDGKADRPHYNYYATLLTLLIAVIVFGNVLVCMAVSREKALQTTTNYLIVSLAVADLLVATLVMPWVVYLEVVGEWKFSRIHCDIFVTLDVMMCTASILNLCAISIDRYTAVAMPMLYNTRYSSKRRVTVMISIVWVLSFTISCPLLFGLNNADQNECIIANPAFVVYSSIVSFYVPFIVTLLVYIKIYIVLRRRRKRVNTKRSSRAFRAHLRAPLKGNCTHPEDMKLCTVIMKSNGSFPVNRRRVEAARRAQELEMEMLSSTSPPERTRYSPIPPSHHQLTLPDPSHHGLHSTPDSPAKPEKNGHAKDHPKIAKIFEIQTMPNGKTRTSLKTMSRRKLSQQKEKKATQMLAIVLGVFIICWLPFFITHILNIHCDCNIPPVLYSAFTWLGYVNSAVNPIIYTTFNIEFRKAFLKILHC
UniProt P28335: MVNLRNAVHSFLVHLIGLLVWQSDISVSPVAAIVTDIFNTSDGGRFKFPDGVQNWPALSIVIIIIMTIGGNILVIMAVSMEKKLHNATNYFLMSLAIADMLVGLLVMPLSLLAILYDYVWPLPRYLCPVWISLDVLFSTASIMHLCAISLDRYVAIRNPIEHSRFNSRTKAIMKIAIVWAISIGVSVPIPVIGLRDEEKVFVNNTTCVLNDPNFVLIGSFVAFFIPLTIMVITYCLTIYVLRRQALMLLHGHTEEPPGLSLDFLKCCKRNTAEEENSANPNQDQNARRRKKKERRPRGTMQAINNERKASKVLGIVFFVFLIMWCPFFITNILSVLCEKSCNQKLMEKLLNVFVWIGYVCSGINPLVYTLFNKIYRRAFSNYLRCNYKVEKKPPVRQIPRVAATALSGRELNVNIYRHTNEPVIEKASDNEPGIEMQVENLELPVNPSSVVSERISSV

Tests used:
[1] = biological target: T1, Sodium-dependent dopamine transporter (Homo sapiens, UniProt Q01959); experiment: Displacement of [125I]RTI-55 from human DAT expressed in HEK293 cells; format: cell-based
Method in brief: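 Membranes from HEK293 cells expressing hDAT or hSERT, grown to 80% confluence, lysed in 2 mM HEPES/1 mM EDTA, spun and resuspended in 0.32 M sucrose. About 10–15 µg protein preincubated 10 min with compound in Krebs-HEPES pH 7.4 (0.1% DMSO final). [125I]RTI-55 (40–80 pM final) then added for 90 min at 25°C. Filtered on GF/C. Non-specific binding: 5 µM mazindol (DAT) or 5 µM imipramine (SERT). Duplicates, 2–3 experiments, IC50 converted to Ki by Cheng-Prusoff.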

[2] = biological target: 5-hydroxytryptamine receptor 1A (Homo sapiens, UniProt P08908); experiment: Inhibitory activity against 5HT1A
[3] = biological target: D(2) dopamine receptor (Homo sapiens, UniProt P14416); experiment: Inhibitory activity against dopamine D2
[4] = biological target: 5-hydroxytryptamine receptor 2C (Homo sapiens, UniProt P28335); experiment: Inhibitory activity against 5HT1C
[5] = biological target: T1, Sodium-dependent dopamine transporter; experiment: Inhibition of [3H] dopamine uptake into human DAT expressed in HEK293 cells; format: functional, cell-based
Method in brief: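 Confluent HEK293 cells expressing hDAT or hSERT, scraped into Krebs-HEPES. Preincubated 10 min at 25°C with compound (0.1% DMSO final). Uptake started with [3H]dopamine or [3H]serotonin (20 nM final) and stopped after 10 min by filtration on PEI-soaked GF/C filters. Non-specific uptake: 5 µM mazindol (DAT) or 5 µM imipramine (SERT). IC50 from triplicate 6-concentration curves, 2–3 independent determinations.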

| Compound | pKi [1] | pIC50 [2] | pIC50 [3] | pIC50 [4] | pIC50 [5] |
| --- | --- | --- | --- | --- | --- |
| CCC[C@H](C(=O)c1ccc(C)cc1)N1CCCC1 | 5.88 | – | – | – | – |
| CCCC(C(=O)c1ccc([N+](=O)[O-])cc1)N1CCCC1 (stereo unspecified) | – | < 5.00 | < 5.00 | < 5.00 | – |
| CCC(C(=O)c1ccc(Cl)c(Cl)c1)N1CCCC1 (stereo unspecified) | 7.54 | – | – | – | 7.26 |
